This assay has as its target Fatty-acid amide hydrolase 1 (Rattus norvegicus, UniProt P97612). Nature of the assay: Inhibition of FAAH in rat brain membranes using [14C]-AEA as substrate measured after 30 mins by scintillation counting method. The class given is cell membranes.

The chains behind the UniProt entries cited, without tags or fusion partners.
UniProt P97612, whole entry: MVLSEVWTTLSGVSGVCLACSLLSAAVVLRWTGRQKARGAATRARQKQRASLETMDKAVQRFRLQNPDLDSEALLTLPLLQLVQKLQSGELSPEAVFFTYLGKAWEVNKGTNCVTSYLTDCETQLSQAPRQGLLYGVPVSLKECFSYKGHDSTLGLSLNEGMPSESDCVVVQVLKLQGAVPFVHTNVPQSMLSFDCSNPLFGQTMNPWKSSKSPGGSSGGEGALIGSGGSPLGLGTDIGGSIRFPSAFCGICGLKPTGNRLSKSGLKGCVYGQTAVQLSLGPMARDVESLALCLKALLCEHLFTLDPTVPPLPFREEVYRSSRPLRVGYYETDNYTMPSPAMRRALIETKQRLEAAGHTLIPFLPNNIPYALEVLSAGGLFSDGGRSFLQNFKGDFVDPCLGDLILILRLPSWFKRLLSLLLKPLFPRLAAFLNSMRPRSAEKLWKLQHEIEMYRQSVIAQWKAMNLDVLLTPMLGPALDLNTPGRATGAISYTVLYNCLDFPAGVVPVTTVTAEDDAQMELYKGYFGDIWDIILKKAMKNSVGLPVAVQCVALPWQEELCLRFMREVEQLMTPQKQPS

Drawing on ChEMBL document CHEMBL4422692, “Plant-Based Modulators of Endocannabinoid Signaling” (J Nat Prod, 2019), this text covers IC50 for one compound.

Consider `C=C(C)[C@@H]1CCC(C)=C[C@H]1c1c(O)cc(CCCCC)cc1O` [CANNABIDIOL], for which the IC50 amounted to 53.2 µM.

In general, IC50 refers to the concentration needed to halve the response being measured.
